We go through four compounds from US20130231373A1.

Sequences of proteins named here, by UniProt entry; tags and fusion partners are left off.
UniProt Q13547, whole entry: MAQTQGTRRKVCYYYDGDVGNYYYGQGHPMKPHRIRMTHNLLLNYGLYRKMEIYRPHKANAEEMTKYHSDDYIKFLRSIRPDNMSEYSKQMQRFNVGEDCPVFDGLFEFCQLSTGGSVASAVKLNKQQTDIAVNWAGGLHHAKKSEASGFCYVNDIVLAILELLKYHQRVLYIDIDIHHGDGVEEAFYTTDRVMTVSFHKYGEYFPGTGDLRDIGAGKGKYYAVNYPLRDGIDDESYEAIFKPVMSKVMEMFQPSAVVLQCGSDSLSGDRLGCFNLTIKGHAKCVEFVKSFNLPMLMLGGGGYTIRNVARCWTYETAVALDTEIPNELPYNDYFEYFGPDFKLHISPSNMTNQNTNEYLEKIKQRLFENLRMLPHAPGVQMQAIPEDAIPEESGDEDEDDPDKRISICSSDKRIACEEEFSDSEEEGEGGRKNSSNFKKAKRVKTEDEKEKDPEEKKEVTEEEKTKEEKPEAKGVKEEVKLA

One test has as its system HCT116. Description: HCT116 IC50 (Table 2). The conditions noted are these: read-out: HCT116 IC50.
Another test has as its target HDAC-1 (Homo sapiens, UniProt Q13547). In words: HDAC Inhibition Assay (purified GST-HDAC protein). The note with it: read-out: HDAC-1 IC50. From the text: The baculovirus donor vector pFB-GSTX3 is used to generate a recombinant baculovirus that expresses the HDAC polypeptide. Transfer vectors containing the HDAC coding region are transfected into the DH10Bac cell line (GIBCO) and plated on selective agar plates. Colonies without insertion of the fusion sequence into the viral genome (carried by the bacteria) are blue. Single, white colonies are picked and viral DNAs (bacmid) are isolated from the bacteria by standard plasmid purification procedures. Sf9 cells or Sf21 (American Type Culture Collection) cells are then transfected in 25 cm^3 flasks with the viral DNA using Cellfectin reagent.
Determination of Small Scale Protein Expression in Sf9 Cells
Virus-containing media is collected from the transfected cell culture and used for infection to increase its titer. Virus-containing media obtained after two rounds of infection is used for large-scale protein expression. […]
HDAC assays with purified GST-HDAC protein are carried out in a final volume of 30 μL containing 15 ng of GST-HDAC protein, 20 mM tris-HCl, pH 7.5, 1 mM MnCl2, 10 mM MgCl2, 1 mM DTT, 3 μg/mL poly(Glu,Tyr) 4:1, 1% DMSO, 2.0 μM ATP (γ-[^33P]-ATP 0.1 μCi). […] Membranes are counted after drying at ambient temperature, mounting in Packard TopCount 96-well frame, and addition of 10 μL/well of MICROSCINT™ (Packard). […]
Normalized IC50=measured IC50 average ref. IC50/measured ref. IC50 […]

In the case of `O=C(/C=C/c1ccc(CN2CCC[C@@H]2Cn2cc3ccccc3n2)cc1)NO`, the half-inhibitory concentration (IC50) in the test with HCT116 came to 9 nM; on HDAC-1, 7 nM.
`O=C(/C=C/c1ccc(CN2CCC[C@H]2CN2CCc3ccccc32)cc1)NO`: in the test with HCT116, the IC50 amounted to 100 nM.
As for `O=C(/C=C/c1ccc(CN2CCC[C@@H]2Cn2ncc3ccccc32)cc1)NO`, in the test on HCT116, the half-maximal inhibitory concentration (IC50) is 1 nM.
As for `Cc1[nH]c2ccccc2c1C[C@H]1C[C@H]2CCC[C@H]2N1Cc1ccc(/C=C/C(=O)NO)cc1`, on HDAC-1, the half-inhibitory concentration (IC50) was 2 nM.

For orientation: IC50 means the concentration that gives 50% inhibition.
